This note sets out measurements from PubChem BioAssay AID588453 (National Center for Advancing Translational Sciences (NCATS), 2011).

Chains of the proteins cited; added tags and fusions are not shown.
UniProt O89049, whole entry: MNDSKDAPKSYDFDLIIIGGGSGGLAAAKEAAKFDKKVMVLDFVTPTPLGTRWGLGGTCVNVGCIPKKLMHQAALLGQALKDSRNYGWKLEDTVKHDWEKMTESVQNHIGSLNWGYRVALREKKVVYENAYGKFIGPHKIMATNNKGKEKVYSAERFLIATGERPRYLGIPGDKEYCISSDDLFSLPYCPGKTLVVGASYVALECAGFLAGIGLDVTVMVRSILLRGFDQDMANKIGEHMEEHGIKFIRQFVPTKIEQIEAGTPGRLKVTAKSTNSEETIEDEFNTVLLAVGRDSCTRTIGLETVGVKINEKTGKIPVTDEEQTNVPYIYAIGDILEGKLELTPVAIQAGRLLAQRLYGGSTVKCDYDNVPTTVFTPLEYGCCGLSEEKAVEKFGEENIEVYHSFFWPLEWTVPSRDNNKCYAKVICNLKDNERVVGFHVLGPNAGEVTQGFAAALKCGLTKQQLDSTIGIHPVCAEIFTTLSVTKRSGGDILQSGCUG

The entries are a selection whose mix differs from that of the whole data set. Records with an inconclusive call do not appear. Activity calls are given as the source filed them. Calls follow the shape of the dose curve; as a rule, active = well fitted inhibition curve with a large enough effect; inconclusive = small, poorly fitted or top-dose-only effect; inactive = no such curve, though single readings can be large or run the other way.
% is scaled to controls: 0 for no effect and ±100 for the full control effect.

For the test, the target named is Thioredoxin reductase 1, cytoplasmic (Rattus norvegicus) (UniProt O89049). Description: qHTS Assay for Inhibitors of Mammalian Selenoprotein Thioredoxin Reductase 1 (TrxR1): qHTS. Also: nearly all actives have a fitted effect of over 65% in size. To be noted: recombinant rTrxR1, NADPH fluorescence consumption, selenite substrate; at 114 µM (top of the series).
As for `CP(=O)(Nc1ccccc1)Oc1ccc(F)cc1` (stereo unspecified), the activity change, negative = inhibition is inactive: 11.7%.
